Read-outs that look alike come from different tables or passages of the source.
Experiments:
pSTAT3 (Tyr-705) [1] = target: T1, pSTAT3 (Tyr-705) (Homo sapiens, UniProt P40763); assay: Phosphoflow, G-CSF-induced STAT3 phosphorylation in Kasumi-1 cells; assay type: cell-based
T1 construct: endogenous in cells; host or cells: Kasumi-1
Protocol: The equilibrium binding levels obtained ± compound were normalized (resonance obtained in the presence of compound ÷ the resonance obtained in the absence of compound × 100) and plotted against Log [nM] […] B. Inhibition of ligand-stimulated STAT phosphorylation, measured by phosphoflow. Serum-starved (1 hour) Kasumi-1 cells, pre-incubated with compound/DMSO (1 hour), were treated with G-CSF (10 ng/ml, 15 min, left two panels) or IFN-γ (10ng/ml, 15 min, right panel). Cells were permeabilized and stained with Alexa647-pSTAT3, and PE-pSTAT1 antibodies and analyzed on BD LSR2. FCS files were uploaded to Cytobank for pSTAT3 and pSTAT1 quantitation. […] Mean fluorescence (pSTAT3/1) levels were plotted as function the Log [M] compound, and IC50 calculated using GraphPad. […] D. Inhibition of ligand-stimulated STAT phosphorylation, measured by Luminex. […] These values were plotted as a function of Log [M] compound, and IC50 values calculated using GraphPad.
Phosphoflow analysis was done as described in Xu et al. Briefly, Kasumi-1 cells, were serum-starved, pre-treated with compound or DMSO (1 hour, RT) and then stimulated with 20 μl of GCSF (10 ng/ml) for 15 minutes at 37°C. The cells were then permeabilized and stained with Alexa647-pSTAT3, Alexa488-pSTAT5 and PE-pSTAT1 antibodies and analyzed using the BD LSR2. […] IC50 values were calculated using the GraphPad Prism.

Protein sequences, listed by entry. Tags and fused reporters are not part of them.
UniProt P40763, whole entry: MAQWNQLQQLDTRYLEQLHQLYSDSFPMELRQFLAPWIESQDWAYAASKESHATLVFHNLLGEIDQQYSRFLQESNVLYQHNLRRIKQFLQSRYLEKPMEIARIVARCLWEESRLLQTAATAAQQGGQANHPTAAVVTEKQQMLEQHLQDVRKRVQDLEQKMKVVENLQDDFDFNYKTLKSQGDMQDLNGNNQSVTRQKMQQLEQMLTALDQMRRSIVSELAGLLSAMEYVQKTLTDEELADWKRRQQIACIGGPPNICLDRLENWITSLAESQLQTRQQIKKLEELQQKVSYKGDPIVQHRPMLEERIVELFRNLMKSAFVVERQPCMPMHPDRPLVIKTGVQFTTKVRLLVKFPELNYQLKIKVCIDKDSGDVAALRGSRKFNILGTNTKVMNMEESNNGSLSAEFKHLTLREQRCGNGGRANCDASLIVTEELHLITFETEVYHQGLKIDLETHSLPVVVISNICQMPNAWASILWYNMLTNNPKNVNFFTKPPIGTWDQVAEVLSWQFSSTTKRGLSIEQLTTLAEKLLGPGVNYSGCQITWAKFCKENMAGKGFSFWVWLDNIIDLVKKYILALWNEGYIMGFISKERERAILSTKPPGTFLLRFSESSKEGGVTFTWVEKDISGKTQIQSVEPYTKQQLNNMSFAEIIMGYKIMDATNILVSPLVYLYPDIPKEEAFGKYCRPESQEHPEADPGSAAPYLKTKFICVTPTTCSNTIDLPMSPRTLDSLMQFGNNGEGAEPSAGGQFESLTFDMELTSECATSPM

STAT3 = STAT3 (Homo sapiens, UniProt P40763); assay: STAT3/pY-peptide binding surface plasmon resonance (SPR) assay; conditions: for IC50: STAT3 200 nM
Protocol: The equilibrium binding levels obtained ± compound were normalized (resonance obtained in the presence of compound ÷ the resonance obtained in the absence of compound × 100) and plotted against Log [nM] […] B. Inhibition of ligand-stimulated STAT phosphorylation, measured by phosphoflow. Serum-starved (1 hour) Kasumi-1 cells, pre-incubated with compound/DMSO (1 hour), were treated with G-CSF (10 ng/ml, 15 min, left two panels) or IFN-γ (10ng/ml, 15 min, right panel). Cells were permeabilized and stained with Alexa647-pSTAT3, and PE-pSTAT1 antibodies and analyzed on BD LSR2. FCS files were uploaded to Cytobank for pSTAT3 and pSTAT1 quantitation. Histograms depicting pSTAT3 and pSTAT1 levels are shown. C. Mean fluorescence (pSTAT3/1) levels were plotted as function the Log [M] compound, and IC50 calculated using GraphPad. […] D. Inhibition of ligand-stimulated STAT phosphorylation, measured by Luminex. Serum-starved (1 hour) Kasumi-1 cells, pre-incubated with compound/DMSO (0/0.1/0.3/1/3/10/100 μM, 1 hour), were treated with G-CSF (10 ng/ml, 15′). Total protein extracts of cells were assayed for pSTAT3, pSTAT1, and GAPDH levels by Luminex. […] These values were plotted as a function of Log [M] compound, and IC50 values calculated using GraphPad. […]
for analysis as described below. were determined by plotting % maximum response as a 3-D pharmacophore generation function of log concentration of compound and fitting the Each molecular chemical feature, including experimental points to a competitive binding model using hydrogen bond donor, hydrogen bond acceptor, positive a four parameter logistic equation: R = Rhigh − (Rhigh − R low)/ (1 + conc/A1)^A2, where R = percent response at and negative ionizable group, and hydrophobic region, inhibitor concentration, R = percent response with no was generated using the LigandScout application compound, R= percent response at highest compound high framework and projected into 3-D space. concentration, A2 = fitting parameter (slope) and A1 = low Feature-pairing IC50 (BIAevaluation Software version 4.1). […]

pSTAT3 (Tyr-705) [2] = target: T1, pSTAT3 (Tyr-705); assay: Luminex bead-based assay, G-CSF-induced pSTAT3 in Kasumi-1 cells; assay type: cell-based
Protocol: The equilibrium binding levels obtained ± compound were normalized (resonance obtained in the presence of compound ÷ the resonance obtained in the absence of compound × 100) and plotted against Log [nM] […] B. Inhibition of ligand-stimulated STAT phosphorylation, measured by phosphoflow. Serum-starved (1 hour) Kasumi-1 cells, pre-incubated with compound/DMSO (1 hour), were treated with G-CSF (10 ng/ml, 15 min, left two panels) or IFN-γ (10ng/ml, 15 min, right panel). Cells were permeabilized and stained with Alexa647-pSTAT3, and PE-pSTAT1 antibodies and analyzed on BD LSR2. FCS files were uploaded to Cytobank for pSTAT3 and pSTAT1 quantitation. Histograms depicting pSTAT3 and pSTAT1 levels are shown. C. Mean fluorescence (pSTAT3/1) levels were plotted as function the Log [M] compound, and IC50 calculated using GraphPad. […] D. Inhibition of ligand-stimulated STAT phosphorylation, measured by Luminex. Serum-starved (1 hour) Kasumi-1 cells, pre-incubated with compound/DMSO (0/0.1/0.3/1/3/10/100 μM, 1 hour), were treated with G-CSF (10 ng/ml, 15′). Total protein extracts of cells were assayed for pSTAT3, pSTAT1, and GAPDH levels by Luminex. GAPDH-normalized pSTAT3 or pSTAT1 values were divided by this ratio for untreated cells and expressed in percentage. These values were plotted as a function of Log [M] compound, and IC50 values calculated using GraphPad. […]

pSTAT3 = pSTAT3 (Homo sapiens, UniProt P40763); assay: Constitutive pSTAT3 in HNSCC cell lines (Luminex); assay type: cell-based; set-up: endogenous in cells; host or cells: UM-SCC-17B, SCC-35, SCC-61, HN30; conditions: UM-SCC-17B, 24 hrs

O=C(O)CSc1cc(NS(=O)(=O)c2ccc(C(=O)O)cc2)c2ccccc2c1O [Compound C188]
IC50 (pSTAT3 (Tyr-705) [1]; Figure 2C, Kasumi-1, G-CSF, read-out: Phosphoflow pSTAT3 (Tyr-705) IC50, representative experiment): 24.4 µM | IC50 (pSTAT3 (Tyr-705) [1]; Kasumi-1, G-CSF 10 ng/ml 15 min, mean, n ≥ 2, read-out: Ligand Induced Phosphorylation (Phosphoflow) pSTAT3 (GCSF) IC50): 16.8 ± 20.1 µM | IC50 (STAT3; Figure 2A inlay, read-out: SPR IC50, representative binding curve): 10 µM | IC50 (STAT3; EGFR pY1068 dodecapeptide, mean, n ≥ 2, read-out: pY-Peptide Binding (SPR) IC50): 7.5 ± 3.5 µM | Ki (STAT3; calculated by Cheng-Prusoff from SPR IC50, [STAT3]=200 nM): 0.0373 µM | IC50 (pSTAT3 (Tyr-705) [2]; Figure 2D, Kasumi-1, G-CSF, read-out: Luminex pSTAT3 (Tyr-705) IC50, representative experiment): 17.8 µM | IC50 (pSTAT3 (Tyr-705) [2]; Kasumi-1, mean, n ≥ 2, read-out: G-CSF Induced Phosphorylation (Luminex) pSTAT3 IC50): 16.2 ± 2.3 µM | IC50 (pSTAT3; Figure 4A, read-out: Constitutive pSTAT3 (Luminex) IC50, representative experiment): 11.6 µM | IC50 (pSTAT3; mean, read-out: Constitutive pSTAT3 IC50): 15.4 ± 9.2 µM

Reference: article PMC5041982, “Small-molecule inhibition of STAT3 in radioresistant head and neck squamous cell carcinoma” (Oncotarget, 2016)
